The values below come from US20090304692A1, “TRIAZINE COMPOUNDS AS PI3 KINASE AND MTOR INHIBITORS” (Wyeth, priority 2008, published 2009).

By UniProt entry, the sequences of proteins in these tests, tags left out.
UniProt P42336, whole entry, species assumed: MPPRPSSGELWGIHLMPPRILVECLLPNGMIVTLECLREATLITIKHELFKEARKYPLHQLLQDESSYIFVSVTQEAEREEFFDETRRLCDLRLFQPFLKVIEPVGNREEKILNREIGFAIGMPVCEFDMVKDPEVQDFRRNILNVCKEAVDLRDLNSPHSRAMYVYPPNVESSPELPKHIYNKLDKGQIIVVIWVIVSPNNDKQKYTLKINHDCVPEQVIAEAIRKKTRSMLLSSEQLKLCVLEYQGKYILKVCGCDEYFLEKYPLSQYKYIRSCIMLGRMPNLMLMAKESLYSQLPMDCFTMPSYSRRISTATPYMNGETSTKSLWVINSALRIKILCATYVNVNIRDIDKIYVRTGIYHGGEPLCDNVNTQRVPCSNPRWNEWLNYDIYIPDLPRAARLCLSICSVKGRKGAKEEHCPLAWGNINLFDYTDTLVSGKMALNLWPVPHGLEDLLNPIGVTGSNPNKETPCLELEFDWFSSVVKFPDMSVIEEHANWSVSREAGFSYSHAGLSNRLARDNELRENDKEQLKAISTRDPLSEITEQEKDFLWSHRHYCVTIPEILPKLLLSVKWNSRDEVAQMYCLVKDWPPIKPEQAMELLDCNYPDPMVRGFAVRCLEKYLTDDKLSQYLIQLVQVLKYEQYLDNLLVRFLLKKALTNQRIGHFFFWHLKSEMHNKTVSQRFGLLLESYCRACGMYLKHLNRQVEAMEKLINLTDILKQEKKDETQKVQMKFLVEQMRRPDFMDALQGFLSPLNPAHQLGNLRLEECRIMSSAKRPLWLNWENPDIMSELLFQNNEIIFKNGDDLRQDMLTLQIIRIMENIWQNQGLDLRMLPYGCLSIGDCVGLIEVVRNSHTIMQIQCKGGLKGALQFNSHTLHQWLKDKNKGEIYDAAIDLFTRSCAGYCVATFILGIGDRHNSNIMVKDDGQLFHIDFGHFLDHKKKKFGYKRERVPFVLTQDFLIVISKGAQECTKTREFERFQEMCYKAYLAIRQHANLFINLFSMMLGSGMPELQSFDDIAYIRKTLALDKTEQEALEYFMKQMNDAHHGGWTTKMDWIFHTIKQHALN
UniProt P48736, whole entry, species assumed: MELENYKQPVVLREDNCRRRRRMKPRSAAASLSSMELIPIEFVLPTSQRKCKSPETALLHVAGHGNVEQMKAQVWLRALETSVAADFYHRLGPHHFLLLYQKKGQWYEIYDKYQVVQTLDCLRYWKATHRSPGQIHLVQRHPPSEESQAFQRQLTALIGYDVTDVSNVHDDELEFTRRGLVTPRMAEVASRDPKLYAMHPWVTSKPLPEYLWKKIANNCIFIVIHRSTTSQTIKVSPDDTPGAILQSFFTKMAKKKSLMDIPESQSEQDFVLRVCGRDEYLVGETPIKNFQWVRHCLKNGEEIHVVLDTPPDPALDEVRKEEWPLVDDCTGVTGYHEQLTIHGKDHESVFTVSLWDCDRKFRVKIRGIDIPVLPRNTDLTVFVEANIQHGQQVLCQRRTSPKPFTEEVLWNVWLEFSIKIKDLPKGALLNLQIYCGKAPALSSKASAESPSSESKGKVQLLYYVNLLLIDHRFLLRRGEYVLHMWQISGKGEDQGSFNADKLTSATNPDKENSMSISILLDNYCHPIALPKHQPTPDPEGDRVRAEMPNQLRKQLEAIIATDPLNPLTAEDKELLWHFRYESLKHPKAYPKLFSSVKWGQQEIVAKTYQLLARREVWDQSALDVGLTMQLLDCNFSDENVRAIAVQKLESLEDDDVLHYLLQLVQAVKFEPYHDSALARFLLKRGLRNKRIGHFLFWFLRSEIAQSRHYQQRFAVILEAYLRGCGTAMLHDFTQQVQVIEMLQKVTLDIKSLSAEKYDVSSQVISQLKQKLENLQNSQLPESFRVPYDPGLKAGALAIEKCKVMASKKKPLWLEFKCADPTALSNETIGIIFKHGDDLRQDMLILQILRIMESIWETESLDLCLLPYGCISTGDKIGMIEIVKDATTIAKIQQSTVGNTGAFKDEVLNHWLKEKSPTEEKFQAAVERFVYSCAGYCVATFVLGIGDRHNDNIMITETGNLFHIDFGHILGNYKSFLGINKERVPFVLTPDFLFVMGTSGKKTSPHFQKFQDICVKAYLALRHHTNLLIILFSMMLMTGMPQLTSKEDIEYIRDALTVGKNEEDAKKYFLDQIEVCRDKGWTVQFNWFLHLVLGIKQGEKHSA

Where two headings read alike, the source gives them in different places.

One assay addresses PI3K-α (Homo sapiens, UniProt P42336). The assay can be described thus: PI3K-alpha fluorescence polarization assay. Particulars: read-out: IC50 PI3Kα. A general note: Fluorescence polarisation rises when a labelled molecule tumbles more slowly, as on binding a larger partner.
A further assay concerns the target PI3K-γ (Homo sapiens, UniProt P48736). The assay can be described thus: PI3K-gamma fluorescence polarization assay. Particulars: read-out: IC50 PI3Kγ.

With `O=C(Nc1ccc(-c2nc(N3CCOCC3)nc(N3CCOCC3)n2)cc1)Nc1cccnc1` [Example 2, 1-[4-(4,6-dimorpholin-4-yl-1,3,5-triazin-2-yl)phenyl]-3-pyridin-3-ylurea], the IC50 at PI3K-α stood at 2 nM; on PI3K-γ it was 35 nM.

On to `O=C(Nc1ccc(Cl)cc1)Nc1ccc(-c2nc(N3CCOCC3)nc(N3CCOCC3)n2)cc1` [Example 8, 1-(4-chlorophenyl)-3-[4-(4,6-dimorpholin-4-yl-1,3,5-triazin-2-yl)phenyl]-urea], for which the half-maximal inhibitory concentration (IC50) on PI3K-γ stood at 220 nM; at PI3K-γ (listed as 10), 289 nM.

As for `CC(O)c1ccc(NC(=O)Nc2ccc(-c3nc(N4CCOCC4)nc(N4CCOCC4)n3)cc2)cc1` (centres unmarked) [Example 52, 1-[4-(4,6-dimorpholin-4-yl-1,3,5-triazin-2-yl)phenyl]-3-[4-(1-hydroxyethyl)phenyl]urea], the results for the IC50 on PI3K-α and at PI3K-γ were 2 nM and 38 nM, respectively.

In the case of `CNC(=O)c1ccc(NC(=O)Nc2ccc(-c3nc(N4CCOCC4)nc(N4CCOCC4)n3)cc2)cc1` [Example 70, 4-(3-(4-(4,6-dimorpholino-1,3,5-triazin-2-yl)phenyl)ureido)-N-methylbenzamide], the IC50 on PI3K-γ was 20 nM.

For `CC(C)Oc1nc(-c2ccc(NC(=O)Nc3ccc(C(=O)NC4CCN(C)CC4)cc3)cc2)nc(N2CCOCC2)n1` [Example 97, 4-({[4-(4-isopropoxy-6-morpholin-4-yl-1,3,5-triazin-2-yl)phenyl]carbamoyl}amino)-N-(1-methylpiperidin-4-yl)benzamide], the values for the IC50 at PI3K-α and on PI3K-γ were 2 nM and 22 nM, respectively.

As to `COc1nc(-c2ccc(NC(=O)Nc3ccc(C(=O)N4CCN(C)CC4)cc3)cc2)nc(N2CCOCC2)n1` [Example 246, 1-[4-(4-methoxy-6-morpholin-4-yl-1,3,5-triazin-2-yl)phenyl]-3-{4-[(4-methylpiperazin-1-yl)carbonyl]phenyl}urea], the IC50 on PI3K-α was 1 nM; on PI3K-α (listed as 723) it was 1.3 nM.

Usually IC50 stands for the concentration that gives 50% inhibition.
